Experiment: Viscosity of liquid oil (E) on a Brookfield viscometer
Type: physicochemical
Conditions: at 25 degrees C., No. 2 spindle, 12 rpm
Experimental: The liquid oil having a viscosity of from 5 to 400 mPa·s at 25 degrees C., (E), is known and commonly used in cosmetics. The viscosity of the liquid oil at 25 degrees C. is preferably 8 to 350 mPa·s, and more preferably 12 to 300 mPa·s. […] The viscosity is measured on a Brookfield viscometer using No. 2 spindle at 12 rpm.

glycerol tri(caprylate/caprate)
Viscosity: 25 mPa·s
